From publication PMC7139830, “Drug Conjugation Induced Modulation of Structural and Membrane Interaction Features of Cationic Cell-Permeable Peptides” (International Journal of Molecular Sciences, 2020)
Several values for one entry are separate records, joined by “and”; a condition that tells them apart may be missing. Equal entries are not always repeated.

Experiment: Analytical RP-HPLC retention time on C-18 column as indicator of polarity
Format: physicochemical
Conditions: chromatographic, YMC-Pack ODS-A C18 (5 µm, 120 Å) 150 × 4.6 mm; gradient 5% B 2 min, 5%–100% B 20 min; A 0.1% TFA in water, B 0.1% TFA in acetonitrile/water 80/20; 1 mL/min; UV 220 nm
Source text: Cationic membrane active peptides and their INH-derivatives were synthesized in good yields, using previously described methods. Peptides were characterized with their monoisotopic molecular mass (M), retention time on a C-18 RP-HPLC column (Rt), estimated hydrophilicity values (H) and net charge (z) (see Table 1). Peptides are listed according to their retention times, which are the indicator of their polarity. […] This order of peptides’ polarity is almost equal to the relative hydrophilicity estimated from the amino acid composition. […] That might be the result of decreased charge due to INH coupling at the N-terminal, although the addition of INH molecule is expected to increase the polarity of the conjugate.
Purified peptides were analyzed by RP-HPLC, on an analytical C-18 column, using gradient elution with the abovementioned eluent A and B (flow rate was 1 mL/min, UV detection at λ = 220 nm). Molecular mass of the peptides was determined on a Thermo Scientific Q Exactive™ Focus Hybrid Quadrupole-Orbitrap™ Mass Spectrometer (ThermoFisher Scientific, Waltham, MA, USA).

Substance: Transportan
- Rt, retention time on C-18 RP-HPLC column (indicator of polarity): > 12 and 16.8
